Assay outcomes deposited in PubChem BioAssay by ICCB-Longwood Screening Facility, Harvard Medical School.
HCMV UL50-53 inh: disrupts HCMV UL50-UL53 complex binding. HTRF UL50-UL53 interaction, normalized percent inhibition. inhibition, % (test concentration not listed). actives 0.15% (n = 190,000); in the data active means inhibition above about 27%, passing the limit was not always enough
Sa growth inh: S. aureus growth inhibition; relative growth, % (test concentration not listed); actives 0.53% (n = 170,000); S. aureus RN4220 growth, OD600, 20 h, 42 °C; stronger effect = lower value;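 active means relative growth at most 50% at the other temperature and 20+ points below 30 °C, or under 10% at both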
GIV-Gai inh: inhibitors of GIV GBA-motif binding to rat Galpha-i3; P08753; Galpha-i3/FITC-GIV peptide fluorescence polarization, 90 min; hits give low values; scaled: aluminum fluoride 0%, vehicle 100%; percent of control (FP), % (test concentration not listed); 0.42% of 210,000 active; AID 1224905;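 active = replicate mean at 85% of control or lower, very high polarization wells dropped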;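 also: wells of about 15 µL received 100 nL stock; the first replicate is given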
* marks the source's active call; other numbers are inactive results; nt = no result. In the library only some 0.7% were active in any assay of this set; here they are far more common.

| structure | HCMV UL50-53 inh | Sa growth inh | GIV-Gai inh |
| --- | --- | --- | --- |
| Oc1c(Br)cc(Br)c2cccnc12 | -43 | nt | nt |
| Cc1cc(C)c2cccnc2c1O | -32 | 3.0* | 102 |
| CCOC(=O)c1ccc(NC(=O)c2cc3cc(Cl)ccc3oc2=N)cc1 | -16 | 98 | 100 |
| N#Cc1ccc(NC(=O)c2ccc(Br)cc2)cc1 | -30 | 99 | nt |
| CCOC(=O)c1ccc(NC(=O)c2cc3cc4c5c(c3oc2=N)CCCN5CCC4)cc1 | -9 | 105 | -14* |
| Cc1ccc(NC(=O)c2cc3ccccc3oc2=N)cc1 | nt | 107 | 104 |
| N#Cc1ccc(NC(=O)c2cc3cc4c5c(c3oc2=N)CCCN5CCC4)cc1 | nt | 121 | -14* |
| N=c1oc2c3c4c(cc2cc1C(=O)Nc1ccccc1)CCCN4CCC3 | -4 | 109 | -62* |
| Cc1ccc(CNS(=O)(=O)c2c(C)[nH]c(C)c2-c2nnc(C3CCC3)o2)o1 | nt | nt | 100 |
| CS(=O)(=O)N1CCCC(C(=O)NCc2cccnc2)C1 (stereo not drawn) | 11 | 100 | 105 |
| O=C(CSc1nc2ccccc2c(=O)n1CCCO)c1ccc2c(c1)OCO2 | -13 | 110 | nt |
| Cc1cccc(C(=O)Nc2cc3c(cc2C)n(C)c(=O)n3C)c1 | nt | 80 | 101 |
| Cc1cccc(C(=O)Sc2cccccc2=O)c1 | nt | -1.0* | 107 |
| O=C(O)CCc1nc2ccc(C(=O)O)cc2[nH]1 | nt | 82 | 100 |
| C=Cc1c(C)c2cc3[nH]c(cc4nc(cc5nc(cc1[nH]2)C(C)=C5CCC(=O)O)C(CCC(=O)O)=C4C)c(C)c3C=C | 86* | nt | 106 |
| COc1cc(NC(=O)Cn2c3ccccc3n3c(=O)cc(-c4ccccc4)nc23)cc(OC)c1 | nt | nt | 102 |
| Cc1cc(=S)n2c([nH]c3ccccc32)c1C#N | -139 | 12 | 102 |
| C=CCc1cc(C=C2C(=O)NC(=O)NC2=O)cc(OC)c1OC | 60* | 99 | 107 |
| COc1cc(C=C2C(=O)NC(=O)NC2=O)ccc1OC(=O)c1ccc(Cl)cc1 | -5 | nt | 107 |
| CCC(=O)Oc1ccc(C=C2C(=O)NC(=O)NC2=O)cc1OC | 56* | 95 | 96 |
| COc1cc(C=C2C(=O)NC(=O)NC2=O)cc(Cl)c1OCc1ccccc1Cl | 4 | nt | 108 |
| O=C(Nc1cc(-c2ccsc2)no1)c1ccc(Br)o1 | nt | nt | 103 |
| Cc1ccccc1OCC(=O)Nc1ccc(SCc2nnc(-c3ccccc3)o2)cc1 | nt | nt | 101 |
| CN[C@H](CC(C)C)C(=O)N[C@H]1C(=O)N[C@@H](CC(N)=O)C(=O)N[C@H]2C(=O)N[C@H]3C(=O)N[C@H](C(=O)N[C@H](C(=O)O)c4cc(O)cc(O)c4-c4cc3ccc4O)[C@H](O)c3ccc(c(Cl)c3)Oc3cc2cc(c3O[C@@H]2OC(CO)[C@@H](O)[C@H](O)[C@H]2O[C@H]2C[C@](C)(N)[C@H](O)[C@H](C)O2)Oc2ccc(cc2Cl)[C@H]1O (stereo partly drawn) | -16 | nt | nt |
| O/N=C/c1c(Cl)nc2sccn12 | -9 | nt | 100 |
| N#CSc1c(Cl)nc2sccn12 | -18 | 1.8* | nt |
| CCOc1ccc(CN2C(=O)C(NC(C)=O)c3ccccc32)cc1 (stereo not drawn) | nt | 104 | 103 |
| N#C/C(=C\c1[nH]c2ccccc2c1O)C(=N)N1CCOCC1 | nt | 85 | -18* |
| COc1ccc(N=C(N)/C(C#N)=C/c2[nH]c3ccccc3c2O)cc1 | nt | 100 | 259 |
| Brc1ccc(C(NCc2ccccc2)c2nnc(-c3ccccc3)o2)cc1 (stereo not drawn) | -8 | nt | 96 |
| CN(C)S(=O)(=O)c1ccc2nc(NC(=O)/C=C/c3ccccc3)sc2c1 | -7 | nt | nt |
| COc1cc(C(=O)N=C2C(C)=CC(=O)C=C2C)cc(OC)c1OC | nt | -0.6* | 101 |
| COc1cc(C(=O)Oc2cc(C)cc(C)c2)cc(OC)c1OC | 0 | 103 | 102 |
| S=c1[nH]nc(C2CC2)o1 | 8 | 108 | nt |
| CCCC1CCC(c2ccc(C(N)=O)cc2)CC1 (stereo not drawn) | nt | 74 | 104 |
| CCCC1CCC(c2ccc(C(=O)CCN(C)C)cc2)CC1 (stereo not drawn) | 3 | -0.5* | nt |
| O=C(NCc1ccccc1Cl)c1ccccc1 | -14 | 93 | nt |
| CC(C)(C)C1(C)OC(=O)C(=Cc2ccc(C(=O)O)cc2)C(=O)O1 (stereo not drawn) | -4 | 86 | 93 |
| CN(C)c1ccc(/C=C2/C(=O)c3ccc(C(=O)O)cc3C2=O)cc1 | -77 | 93 | -73* |
| CCc1noc2nc(C)nc(N3CCCC(C(=O)O)C3)c12 (stereo not drawn) | -29 | nt | 97 |
| CS(=O)(=O)CCC(C(=O)n1nnc2ccccc21)N1C(=O)c2ccccc2C1=O (stereo not drawn) | nt | 114 | 103 |
| CS(=O)(=O)CCC(C(=O)Oc1cccc2cccnc12)N1C(=O)c2ccccc2C1=O (stereo not drawn) | -11 | 0.7* | 99 |
| Oc1cccc(N=Cc2cc(Br)ccc2O)c1 | -2 | 32* | nt |
| Oc1ccccc1C=Nc1cccc(N=Cc2ccccc2O)c1 | nt | 109 | 100 |
| CCC1=NN(C(=O)c2cccc(OC)c2)C(O)(c2ccc(Br)cc2)C1 (stereo not drawn) | -1 | nt | 114 |
| Cc1cccc(Nc2cc(C)ncn2)c1 | -8 | nt | 107 |
| Cc1[nH]n(-c2ccccc2)c(=O)c1/C=N/O | -35 | 80 | 97 |
| Cc1[nH]n(-c2ccccc2)c(=O)c1N=O | 38* | 104 | nt |
| CCCCOc1ccc(C2C=C(Nc3ccc(C)cc3)C(=O)N2c2ccc(C)cc2)cc1 (stereo not drawn) | nt | nt | 110 |
| CC(C)CNc1cc(Cl)c2noc3c2c1C(=O)c1ccccc1-3 | nt | 81 | -55* |
| O=C1c2ccccc2-c2onc3c(NCCO)cc(NC4CCCCC4)c1c23 | -96 | 129 | 45* |
| CCCCNc1cc(NC2CCCCC2)c2c3c(onc13)-c1ccccc1C2=O | -13 | 105 | 159 |
| Cc1ccc(Sc2cc(Cl)c3noc4c3c2C(=O)c2ccccc2-4)cc1 | nt | nt | 103 |
| CC(C)CNc1cc(NCCO)c2c3c(onc13)-c1ccccc1C2=O | nt | 98 | -54* |
| CC1CC(C)CN(c2cc(NCCO)c3c4c(onc24)-c2ccccc2C3=O)C1 (stereo not drawn) | -118 | 99 | 118 |
| COc1cc(C(F)(F)F)c(C(=O)Nc2cccc(C)c2C)cn1 | -3 | 136 | 103 |
| Cc1ccc(N2CC(O)(c3ccc(C)cc3)[N+]3=C2SCCC3)cc1 (stereo not drawn) | nt | nt | 103 |
| COc1cc(OC)cc(N2C(=O)c3cc(C)nn3CC2(C)C(=O)NCc2ccccc2)c1 (stereo not drawn) | -4 | nt | 96 |
| Cc1ccc(C2=Nc3ccccc3N(CC(=O)NC(C)CCc3ccccc3)C(=O)C2)c(C)c1 (stereo not drawn) | -2 | nt | 100 |
| COC(c1cccs1)c1c(C)[nH]c2ccccc12 (stereo not drawn) | -5 | 2.0* | nt |

(next part)
| structure | HCMV UL50-53 inh | Sa growth inh | GIV-Gai inh |
| --- | --- | --- | --- |
| Cc1[nH]c2ccccc2c1C(c1ccncc1)N1CCN(C)CC1 (stereo not drawn) | -5 | nt | nt |
| Cc1[nH]c2ccccc2c1C(Nc1ccccn1)c1cccs1 (stereo not drawn) | -12 | nt | nt |
| Cc1[nH]c2ccccc2c1C(c1cccs1)N1CCN(c2ccccc2)CC1 (stereo not drawn) | -8 | 0.0* | nt |
| O=C1c2ccccc2C(O)(c2ccccc2)N1c1ccc(N2CCOCC2)cc1 (stereo not drawn) | 0 | 92 | 106 |
| NCCC(=O)N1c2ccccc2Sc2ccc(C(F)(F)F)cc21 | nt | nt | 115 |

Among those listed so far, 6 have a cyano group.
| structure | HCMV UL50-53 inh | Sa growth inh | GIV-Gai inh |
| --- | --- | --- | --- |
| N#Cc1ccc(NC(=O)c2ccc(Br)cc2)cc1 | -30 | 99 | nt |
| N#Cc1ccc(NC(=O)c2cc3cc4c5c(c3oc2=N)CCCN5CCC4)cc1 | nt | 121 | -14* |
| Cc1cc(=S)n2c([nH]c3ccccc32)c1C#N | -139 | 12 | 102 |
| N#CSc1c(Cl)nc2sccn12 | -18 | 1.8* | nt |
| N#C/C(=C\c1[nH]c2ccccc2c1O)C(=N)N1CCOCC1 | nt | 85 | -18* |
| COc1ccc(N=C(N)/C(C#N)=C/c2[nH]c3ccccc3c2O)cc1 | nt | 100 | 259 |
